# Patent US6350760B1, “Substituted piperidines as melanocortin-4 receptor agonists” (Merck & Co., Inc., priority 1999, dated 2002)
# Chains of the proteins cited; added tags and fusions are not shown. Lines headed by an entry give the natural chain unless they say otherwise; changes in a name come on top.
# UniProt Q01726: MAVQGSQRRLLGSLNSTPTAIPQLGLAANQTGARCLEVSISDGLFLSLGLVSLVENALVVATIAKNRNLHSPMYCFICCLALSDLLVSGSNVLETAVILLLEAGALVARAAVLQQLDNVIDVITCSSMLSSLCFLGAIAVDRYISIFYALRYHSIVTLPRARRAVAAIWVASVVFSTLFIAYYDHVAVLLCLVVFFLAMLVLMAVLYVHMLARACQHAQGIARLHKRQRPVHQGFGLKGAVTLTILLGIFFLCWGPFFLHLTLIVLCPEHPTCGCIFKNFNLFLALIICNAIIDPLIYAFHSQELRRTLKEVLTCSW
# UniProt P41968: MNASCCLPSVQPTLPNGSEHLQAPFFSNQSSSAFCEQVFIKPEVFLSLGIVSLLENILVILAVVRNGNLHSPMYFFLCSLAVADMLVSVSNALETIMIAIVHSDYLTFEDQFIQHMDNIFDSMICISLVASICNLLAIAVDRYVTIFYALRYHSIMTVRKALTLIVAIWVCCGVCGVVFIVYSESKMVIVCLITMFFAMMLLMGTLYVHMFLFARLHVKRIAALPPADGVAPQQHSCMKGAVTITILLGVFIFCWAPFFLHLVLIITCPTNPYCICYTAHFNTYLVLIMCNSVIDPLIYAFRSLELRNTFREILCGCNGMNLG
# Key:
# human MC-1R [1] = molecular target: T1, human MC-1R (Homo sapiens, UniProt Q01726); assay: Membrane binding assay, competition with 125I-NDP-alpha-MSH; details: human receptor; average of at least 3 determinations
# T1 construct: expressed in transfected cells; host or cells: CHO- or L-cells or other eukaryotic cells
# Description: (§1) A. Binding Assay. The membrane binding assay was used to identify competitive inhibitors of ^125I-NDP-alpha-MSH binding to cloned human MCRs expressed in L- or CHO-cells.
# (§2) Cell lines expressing melanocortin receptors were grown in T-180 flasks containing selective medium of the composition: 1 L Dulbecco's modified Eagles Medium (DMEM) with 4.5 g L-glucose, 25 mM Hepes, without sodium pyruvate, (Gibco/BRl); 100 ml 10% heat-inactivated fetal bovine serum (Sigma); 10 ml 10,000 unit/ml penicillin & 10,000 ug/ml streptomycin (Gibco/BRl); 10 ml 200 mM L-glutamine (Gibco/BRl); 1 mg/ml Geneticin (G418) (Gibco/BRl). The cells were grown at 37° C. with CO2 and humidity control until the desired cell density and cell number was obtained.
# (§3) The medium was poured off and 10 mls/monolayer of enzyme-free dissociation media (Specialty Media Inc.) was added. The cells were incubated at 37° C. for 10 minutes or until cells sloughed off when flask was banged against hand.
# (§4) The cells were harvested into 200 ml centrifuge tubes and spun at 1000 rpm, 4° C., for 10 min. […]
# (§5) IC50's were determined in a competition binding assay with ^125I-NDP-alpha-MSH as ligand using crude membranes prepared from cell lines expressing the appropriate MC-R. Functional EC50's were determined by application of compound to intact cells followed by direct measurement of cAMP as described in the Biological Assays section above.
# human MC-3R [2] = molecular target: T2, human MC-3R (Homo sapiens, UniProt P41968); assay: as above; details: human receptor; average of at least 3 determinations
# T2 construct: expressed in transfected cells; host or cells: CHO- or L-cells or other eukaryotic cells
# Description: as §1, §2, §3, §4, §5
# human MC-1R [3] = molecular target: T1, human MC-1R; assay: Functional cell based cAMP assay; details: human receptor, average of at least 3 determinations
# Text: (§6) B. Functional assay. Functional cell based assays were developed to discriminate melanocortin receptor agonists from antagonists.
# (§7) Cells (for example, CHO- or L-cells or other eukaryotic cells) expressing a human melanocortin receptor (see e.g. Yang-YK; Ollmann-MM; Wilson-BD; Dickinson-C; Yamada-T; Barsh-GS; Gantz-I; Mol-Endocrinol. 1997 Mar; 11(3): 274-80) were dissociated from tissue culture flasks by rinsing with Ca and Mg free phosphate buffered saline (14190-136, Life Technologies, Gaithersburg, Md.) and detached following 5 minutes incubation at 37° C. with enzyme free dissociation buffer (S-014-B, Specialty Media, Lavellette, N.J.). Cells were collected by centrifugation and resuspended in Earle's Balanced Salt Solution (14015-069, Life Technologies, Gaithersburg, Md.) with additions of 10 mM HEPES pH 7.5, 5 mM MgCl2, 1 mM glutamine and 1 mg/ml bovine serum albumin. Cells were counted and diluted to 1 to 5×10^6/ml. […]
# (§8) cAMP was measured in an aliquot of the cell lysate with the Amersham (Arlington Heights, Ill.) cAMP detection assay (RPA556). […]
# as §5
# human MC-3R [4] = molecular target: T2, human MC-3R; assay: Functional cell based cAMP assay; details: human receptor, average of at least 3 determinations
# Text: as §6, §7, §8, §5
structure (smiles),measurement,setting,value
O=C(N[C@H](Cc1ccc(Cl)cc1)C(=O)N1CCC(Cn2cncn2)(C2CCCCC2)CC1)[C@H]1Cc2ccccc2CN1 [Example 2],IC50,human MC-1R [1],2100 nM
same,IC50,human MC-3R [2],540 nM
same,EC50,human MC-1R [3],1300 nM
same,EC50,human MC-3R [4],1200 nM
